Measured values as given in patent publication US9187490B2, “Dimeric IAP inhibitors” (TetraLogic Pharmaceuticals Corporation, priority 2005, dated 2015).
Like-named read-outs stand apart in the source and are kept apart here.

Chains of the proteins cited; added tags and fusions are not shown. Residues count along the entry.
UniProt P98170, 241-356 limits assumed: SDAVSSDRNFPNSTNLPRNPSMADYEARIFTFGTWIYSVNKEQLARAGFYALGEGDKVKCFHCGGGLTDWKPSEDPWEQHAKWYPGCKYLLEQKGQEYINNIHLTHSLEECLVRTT

Biological target: XIAP-BIR3 (Homo sapiens, UniProt P98170)
Experiment: XIAP BIR-3 fluorescence polarization binding assay
[1] = read-out: KD Range, 5 nM AbuRPF-K(5-Fam)-NH2, 40 nM XIAP-BIR3, 15 min RT, pH 7.5
[2] = read-out: KD Range, Example 7 series

Molecule CN[C@@H](C)C(=O)N[C@H]1CCCC[C@H](NC(=O)[C@H](C)NC)C(=O)N2CCC[C@H]2Cc2c3n(c4cc(F)ccc24)CCn2c-3c(c3ccc(F)cc32)C[C@@H]2CCCN2C1=O has a Kd [1] of less than 100 nM.
Work on CC[C@H](N)C(=O)N[C@H](C(=O)N1CCC[C@H]1Cc1c(-c2[nH]c3ccccc3c2C[C@@H]2CCCN2C(=O)[C@@H](NC(=O)[C@@H](N)CC)C(C)C)[nH]c2ccccc12)C(C)C yielded a Kd [2] of less than 100 nM.
CN[C@@H](C)C(=O)N[C@H](C(=O)N1CCC[C@H]1Cc1c(-c2[nH]c3cc(F)ccc3c2C[C@@H]2CCCN2C(=O)[C@@H](NC(=O)[C@H](C)NC)[C@H](C)O)[nH]c2cc(F)ccc12)[C@H](C)O gave a Kd [2] of less than 100 nM.
In the case of CN[C@@H](C)C(=O)N[C@H](C(=O)N1CCC[C@H]1Cc1c(-c2[nH]c3ccccc3c2C[C@@H]2CCCN2C(=O)[C@@H](NC(=O)[C@H](C)NC)C(C)C)[nH]c2ccccc12)C(C)C, the Kd [2] is reported as less than 100 nM.
With CN[C@@H](C)C(=O)N[C@H](C(=O)N1CCC[C@H]1Cc1c(-c2[nH]c3cc(F)ccc3c2C[C@@H]2CCCN2C(=O)[C@@H](NC(=O)[C@H](C)N)C(C)C)[nH]c2cc(F)ccc12)C(C)C [Entry 74] the Kd [2] was less than 100 nM.
CN[C@@H](C)C(=O)N[C@H](C(=O)N1CCC[C@H]1Cc1c(-c2[nH]c3cc(F)ccc3c2C[C@@H]2CCCN2C(=O)[C@@H](NC(=O)[C@H](C)NC)[C@@H](C)O)[nH]c2cc(F)ccc12)[C@@H](C)O was tested, and the Kd [2] was less than 100 nM.
Work on C[C@H](N)C(=O)N[C@H](C(=O)N1CCC[C@H]1Cc1c(-c2[nH]c3ccccc3c2C[C@@H]2CCCN2C(=O)[C@@H](NC(=O)[C@H](C)N)[C@@H](C)O)[nH]c2ccccc12)[C@@H](C)O yielded a Kd [2] of less than 100 nM.
With CN[C@@H](C)C(=O)N[C@H](C(=O)N1CCC[C@H]1Cc1c(CCCn2cc(C[C@@H]3CCCN3C(=O)[C@@H](NC(=O)[C@H](C)NC)[C@@H](C)O)c3ccccc32)oc2ccccc12)[C@@H](C)O the Kd (read-out: KD Pανγε, series of the 11th table) was greater than 10000 nM.
CNC(C)C(=O)NC(C(=O)N1CCCC1Cc1cn(CCn2cc(CC3CCCN3C(=O)C(NC(=O)C(C)NC)C(C)O)c3ccccc32)c2ccccc12)C(C)O (centres unmarked) showed a Kd (read-out: KD Range,, Example 10 series) of less than 100 nM.
In the case of C=CC[C@H](NC(=O)[C@H](C)NC)C(=O)N1CCC[C@H]1Cc1c(-c2[nH]c3cc(F)ccc3c2C[C@@H]2CCCN2C(=O)[C@H](CC=C)NC(=O)[C@H](C)NC)[nH]c2cc(F)ccc12, the Kd [2] is reported as less than 100 nM.
Molecule CN[C@@H](C)C(=O)NCC(=O)N1CCC[C@H]1Cc1cn(CCOCCn2cc(C[C@@H]3CCCN3C(=O)CNC(=O)[C@H](C)NC)c3ccc(F)cc32)c2cc(F)ccc12 has a Kd (read-out: KD Range,, Example 9 series) of 1000 to 10000 nM.
CC[C@H](NC)C(=O)N[C@H](C(=O)N1CCC[C@H]1Cc1c(-c2[nH]c3ccccc3c2C[C@@H]2CCCN2C(=O)[C@@H](NC(=O)[C@H](CC)NC)C(C)C)[nH]c2ccccc12)C(C)C showed a Kd [2] of less than 100 nM.
CN[C@@H](C)C(=O)N[C@H](C(=O)N1CCC[C@H]1Cc1c2n(c3ccccc13)CCCn1c-2c(C[C@@H]2CCCN2C(=O)[C@@H](NC(=O)[C@H](C)NC)[C@@H](C)O)c2ccccc21)[C@@H](C)O was tested, and the Kd [1] was less than 100 nM.
Work on CN[C@@H](C)C(=O)N[C@H](C(=O)N1CCC[C@H]1Cc1c(-c2[nH]c3ccccc3c2C[C@@H]2CCCN2C(=O)[C@@H](NC(=O)[C@H](C)N)C(C)C)[nH]c2ccccc12)C(C)C yielded a Kd [2] of less than 100 nM.
